Assay outcomes (PubChem)
The list is not random: actives were taken first. Their share in the collection is about 2.3%.
miR-21 reporter: raises the signal of a miR-21 reporter; Potency, µM (doses to about 38.3 µM), inactives show top-dose reporter change, positive = more light; HeLa miR-21 FLuc reporter, luciferase, 48 h; AID 2288; 340,000 tested, under 10 active; active = well fitted rising curve with a large enough effect; inconclusive = small, poorly fitted or top-dose-only effect; inactive = no such curve, though single readings can be large or run the other way;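 further: % of control where 0% means no effect; miR-21 action dims this reporter so a rising signal means less miR-21 action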
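Luminescence from a firefly luciferase reporter carrying a miR-21 binding site downstream, stably expressed under a CMV promoter in HeLa cells that make miR-21 endogenously, reports miRNA modulation after 48 h compound exposure up to approximately 40uM final.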
A549 tox: counter-screen for Nrf2 inhibitors: cytotoxicity in A549 cells; actives 0.16% (n = 390,000); Potency, µM (titrated, usually from 46 µM), for the others: top-dose activity change, negative = cytotoxicity, most hits filed as inhibitors; A549 ARE-Fluc cells, CellTiter-Fluor viability, 18-24 h; note: potency is the fitted concentration of half-maximal effect; % is set by controls: 0 for no effect and ±100 for the full control effect
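Cytotoxicity counterscreen: CellTiter-Fluor fluorescence was measured in A549 ARE_Fluc cells after 18-24 h of compound exposure in a concentration series. The subsequent BugLite luminescent read reports ARE-luciferase activity.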
Nrf2 activator: Nrf2 pathway activation; AREc32 ARE-luciferase reporter (MCF7-derived line), luminescence, 24 h; Potency, µM (titrated, usually from 46.1 µM), without a hit: top-dose activation, hits mostly activators; actives 0.31% (n = 410,000); AID 624171; note: potency is the fitted concentration of half-maximal effect; % of control where 0% means no effect; nearly all actives have a fitted effect of over 65% in size
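Luciferase luminescence (Steady-Glo, 30 min at room temperature) served as the read-out of ARE activation in AREc32 cells treated with compounds for 24 hr at 37 deg C.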
Nrf2 inh: inhibitors of Nrf2 signaling; A549 ARE-Fluc reporter, luciferase luminescence, 18-24 h; actives 2.1% (n = 360,000); Potency, µM (doses to about 46 µM), for the others: top-dose activity change, negative = inhibition, most hits filed as inhibitors; note: potency is the fitted concentration of half-maximal effect; % is set by controls: 0 for no effect and ±100 for the full control effect; nearly all actives have a fitted effect of over 60% in size
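A549 ARE_Fluc cells (5000/well, 5% FBS OPTI-MEM) pre-incubated 2 h, then treated with compounds 18-24 h at 37C/5% CO2 in concentration-response. CellTiter-Fluor viability read first; BugLite luciferase luminescence after 15 min at room temperature gives Nrf2 activity.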
Mito fusion act: blocks mitochondrial division or promotes mitochondrial fusion; S. cerevisiae fusion-defective mutant growth rescue, CellTiterGlo 48 h; Potency, µM (top dose mostly 46.1 µM), without a hit: at the top dose growth rescue (activation), usual class: activators; actives 0.23% (n = 320,000); note: potency is the fitted concentration of half-maximal effect; % of control where 0% means no effect; nearly all actives have a fitted effect of over 45% in size
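S. cerevisiae fusion-defective temperature-sensitive mutants (e.g. fzo1-1, mgm1-5) grown 48 h at 37C in YPEG (ethanol/glycerol non-fermentable) medium with 23 nl compound per well; growth rescue read as CellTiterGlo luminescence.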
* hit, by the source's call. Unless noted, calls come from the whole dose curve; as a rule, active = well fitted curve in the direction sought with a large enough effect; inconclusive = small, poorly fitted or top-dose-only effect, or another doubt; inactive = no such curve, though single readings can be large; an effect the other way counts as inactive or inconclusive.

Screening CC1CCN(S(=O)(=O)c2ccc(NC(=O)Cc3ccc(S(=O)(=O)N4CCOCC4)s3)cc2)CC1 returned A549 tox -4.3%, Nrf2 activator -0.3%, Nrf2 inh inconclusive and Mito fusion act 5.5%.
Screening O=C(CSC1=NCCS1)Nc1ccc(S(=O)(=O)N2CCCCCC2)cc1 returned miR-21 reporter -1.5%, A549 tox -26.6%, Nrf2 activator 0.0%, Nrf2 inh 14.6µM* and Mito fusion act 0.9%.
O=C(Cc1ccc(S(=O)(=O)N2CCOCC2)s1)Nc1ccc(S(=O)(=O)N2CCCCC2)cc1 was read as A549 tox -2.5%, Nrf2 activator 5.7%, Nrf2 inh 20.6µM* and Mito fusion act 2.9%.
Screening Cc1ccccc1-c1noc(-c2ccccc2F)n1 returned miR-21 reporter -50.5%, A549 tox -0.7%, Nrf2 activator 8.91µM* and Mito fusion act 1.0%.
`CCCCn1cc(S(=O)(=O)c2ccc(OC)cc2)c(=O)c2cc(CC)ccc21` gave miR-21 reporter 3.7%, A549 tox -2.4%, Nrf2 activator 3.8% and Nrf2 inh 13.4%.
For Cc1cc(S(=O)(=O)Nc2cc(C)c(O)c(C)c2)c(C)s1 the results were miR-21 reporter -0.3%, A549 tox -6.0%, Nrf2 activator inconclusive, Nrf2 inh 10.3µM* and Mito fusion act 3.7%.
Cc1cc(S(=O)(=O)Nc2ccc3ccccc3c2)c(C)s1 was read as miR-21 reporter 21.0%, A549 tox inconclusive, Nrf2 activator 0.2%, Nrf2 inh -114.0% and Mito fusion act 17.8µM*.
Screening COc1ccc(S(=O)(=O)Nc2ccc3ccccc3c2)cc1C returned miR-21 reporter -8.5%, A549 tox -14.9%, Nrf2 activator 3.7%, Nrf2 inh 20.6µM* and Mito fusion act inconclusive.
`Cc1cc(S(=O)(=O)Nc2cccnc2)c(C)s1` gave miR-21 reporter -3.2%, A549 tox 9.7%, Nrf2 activator -1.0%, Nrf2 inh 8.9% and Mito fusion act 1.0%.
Cc1ccc(S(=O)(=O)Nc2ccc3ccccc3c2)cc1 was read as A549 tox 7.2%, Nrf2 activator 6.1% and Nrf2 inh -2.7%.
Cc1c(-c2nnc(SCC(=O)Nc3ccc(Br)cc3)o2)nnn1-c1ccc(F)cc1 was read as miR-21 reporter -12.6%, A549 tox 7.0% and Nrf2 activator -0.2%.
`CCCCNS(=O)(=O)c1ccc(C)c(-c2nnc3c4ccccc4c(C)nn23)c1` gave miR-21 reporter -28.7%, A549 tox -10.1%, Nrf2 activator 0.4% and Nrf2 inh inconclusive.
Screening CCn1nc(C)c2c(-c3ccccc3)cc(=O)n(C(C)C(=O)NCc3cccc(OC)c3)c21 (stereo unspecified) returned miR-21 reporter -0.8%, A549 tox -21.7%, Nrf2 activator 11.8% and Nrf2 inh inconclusive.
CS(=O)(=O)c1ncc(Cl)c(C(=O)N(Cc2ccc(Cl)cc2)Cc2ccco2)n1 was read as miR-21 reporter inconclusive, A549 tox inconclusive, Nrf2 activator -4.3% and Nrf2 inh 23.1µM*.
Screening COc1ccc(CCC(=O)Nc2ccc(OC)c(S(=O)(=O)N3CCCCC3)c2)cc1OC returned A549 tox -14.2%, Nrf2 activator 0.1%, Nrf2 inh inconclusive and Mito fusion act -0.9%.
Screening COc1ccc(NC(=O)CCCOc2ccc(Cl)c(C)c2)cc1S(=O)(=O)N1CCOCC1 returned A549 tox inconclusive, Nrf2 activator -0.5% and Nrf2 inh 18.4µM*.
For COc1ccc(CCC(=O)Nc2ccc(Cl)c(S(=O)(=O)N3CCCC3)c2)cc1 the results were miR-21 reporter 25.5%, A549 tox -1.7%, Nrf2 activator -0.2%, Nrf2 inh 18.4µM* and Mito fusion act -0.5%.
Screening COc1ccc(OCCCC(=O)Nc2ccc(OC)c(S(=O)(=O)N3CCOCC3)c2)cc1 returned A549 tox 0.6%, Nrf2 activator 1.3%, Nrf2 inh -14.1% and Mito fusion act -6.7%.
O=C(OCC#CCSc1nnc(-c2cccc3ccccc23)o1)c1ccccc1F was read as A549 tox -1.9% and Nrf2 inh 9.1%.
For CCCN1CCC(=O)N(C(CSc2ccc(C)cc2)CC(C)C)CC1 (stereo unspecified) the results were A549 tox -23.2% and Nrf2 inh inconclusive.

The list goes on, overlapping the part above by four compounds.
For COc1ccc(CCC(=O)Nc2ccc(Cl)c(S(=O)(=O)N3CCCC3)c2)cc1 the results were miR-21 reporter 25.5%, A549 tox -1.7%, Nrf2 activator -0.2%, Nrf2 inh 18.4µM* and Mito fusion act -0.5%.
Screening COc1ccc(OCCCC(=O)Nc2ccc(OC)c(S(=O)(=O)N3CCOCC3)c2)cc1 returned A549 tox 0.6%, Nrf2 activator 1.3%, Nrf2 inh -14.1% and Mito fusion act -6.7%.
O=C(OCC#CCSc1nnc(-c2cccc3ccccc23)o1)c1ccccc1F was read as A549 tox -1.9% and Nrf2 inh 9.1%.
For CCCN1CCC(=O)N(C(CSc2ccc(C)cc2)CC(C)C)CC1 (stereo unspecified) the results were A549 tox -23.2% and Nrf2 inh inconclusive.
For COc1cccc(C(=O)Nc2cccc(OCc3cc(=O)n4c5c(sc4n3)CCCC5)c2)c1 the results were miR-21 reporter -37.3%, A549 tox -7.0%, Nrf2 activator 1.1% and Nrf2 inh -12.1%.
Screening CC(C)c1csc(CN2CCCC(CCC(=O)NCc3ccccc3F)C2)n1 (stereo unspecified) returned miR-21 reporter 24.2%, A549 tox 13.4%, Nrf2 activator 0.1%, Nrf2 inh -9.3% and Mito fusion act 2.8%.
CC(C)c1csc(CN2CCCC(CNC(=O)c3cccc4ccccc34)C2)n1 (stereo unspecified) was read as miR-21 reporter 6.0%, A549 tox -10.0%, Nrf2 activator 0.6%, Nrf2 inh 16.4µM* and Mito fusion act -7.4%.
Cc1cc2c(s1)c1cnn(Cc3ccc(F)c(F)c3)c(=O)c1n2C was read as A549 tox -1.7% and Nrf2 inh 12.6%.
Screening CN(C)S(=O)(=O)c1cccc(-c2nn(-c3ccccc3)cc2/C=C2\SC(=S)NC2=O)c1 returned miR-21 reporter -25.5%, A549 tox inconclusive, Nrf2 activator 4.4%, Nrf2 inh 16.4µM* and Mito fusion act 21.2%.
CCc1ccc(-c2cc(C(F)(F)F)n3nc(C(=O)Nc4cnn(Cc5ccc(C)cc5)c4)cc3n2)s1 was read as miR-21 reporter -0.5%, A549 tox 25.9µM*, Nrf2 activator 0.3%, Nrf2 inh 8.2µM* and Mito fusion act 0.1%.
Screening Cc1ccccc1Cn1cc(NC(=O)c2cc3nc(-c4ccco4)cc(C(F)(F)F)n3n2)cn1 returned miR-21 reporter -7.3%, A549 tox -2.4%, Nrf2 activator -0.4%, Nrf2 inh inconclusive and Mito fusion act 0.5%.
Cc1ccc(Cn2c(CO)cnc2SCC(=O)NCc2ccccc2Cl)cc1 was read as miR-21 reporter -3.5%, A549 tox 6.8% and Nrf2 activator 2.2%.
For Cc1ccc(C(=O)N/N=C/c2ccc(-c3cccc(Cl)c3)o2)cn1 the results were miR-21 reporter 29.0%, A549 tox -18.6%, Nrf2 activator -0.5%, Nrf2 inh -21.5% and Mito fusion act -5.8%.
Screening Cc1ccc(C(=O)N/N=C\c2ccc(-c3ccc(Cl)c(Cl)c3)o2)cn1 returned miR-21 reporter -1.7%, A549 tox -17.1%, Nrf2 activator -2.6%, Nrf2 inh 18.4µM* and Mito fusion act 5.3%.
For COc1ccc(CN(Cc2ccccc2)C(=O)Nc2ccccc2)cc1COc1ccc(NC(C)=O)cc1 the results were A549 tox -6.1% and Nrf2 inh -3.7%.
